Here are results for one molecule from patent US20060110401A1, “Mixture of peptides from c and ns3 proteins of the hepatitis c virus and applications thereof” (priority 2002, published 2006).

The target of this assay is T1, HLA-DP401 (DPB1*0401) (human), P20036.
T1 chain 1: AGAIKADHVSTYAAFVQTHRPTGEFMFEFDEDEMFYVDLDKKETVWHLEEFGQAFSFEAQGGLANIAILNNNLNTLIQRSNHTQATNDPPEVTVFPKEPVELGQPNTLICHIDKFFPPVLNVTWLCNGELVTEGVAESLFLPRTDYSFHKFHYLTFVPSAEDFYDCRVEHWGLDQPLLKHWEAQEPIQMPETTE
T1 chain 2: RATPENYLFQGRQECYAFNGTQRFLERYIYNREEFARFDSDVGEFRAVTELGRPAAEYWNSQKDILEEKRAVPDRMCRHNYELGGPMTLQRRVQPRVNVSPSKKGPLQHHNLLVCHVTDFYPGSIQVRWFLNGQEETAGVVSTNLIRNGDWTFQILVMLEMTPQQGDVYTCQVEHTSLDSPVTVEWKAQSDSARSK
The experiment in a line: competition. The note with it: chains peptide; modification not given.

What is called IC50 is the concentration needed to halve the response being measured. As for QDHLEFWEGVFTGLTHIDAHFLSQTKQSGENL [29N 1552-1583], the half-maximal inhibitory concentration (IC50) was determined as 575 nM.
